AlphaSeq binding of Ab-95 light chain variants to a spike HR2 peptide

Source: Engelhart et al. 2022 (doi:10.1038/s41597-022-01779-4), MIT Lincoln Laboratory and A-Alpha Bio; data file from the FLAb repository.

Binding partner: SARS-CoV-2 spike HR2 peptide, sequence PDVDLGDISGINAS.

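Library AAYL52 holds single substitutions and randomly drawn double and triple substitutions in the CDRs. The scFvs were displayed on barcoded MATa yeast, the peptide on MATalpha yeast. After mating in shaken culture at 30 °C for 16 h, diploids were selected and their barcode pairs sequenced. The ratio of observed to expected reads was calibrated, replicate by replicate, on BCL2-family standards whose Kd was known from biolayer interferometry. The assay was run in three technical replicates.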

Ab-95 is the parent antibody, in scFv form: VH, then the linker GGGGSGGGGSGGGGS, then VL. The heavy chain is unchanged in all variants.
VH: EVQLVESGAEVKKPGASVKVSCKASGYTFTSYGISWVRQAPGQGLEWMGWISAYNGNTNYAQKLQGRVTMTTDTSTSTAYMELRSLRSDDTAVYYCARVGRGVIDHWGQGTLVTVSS
VL: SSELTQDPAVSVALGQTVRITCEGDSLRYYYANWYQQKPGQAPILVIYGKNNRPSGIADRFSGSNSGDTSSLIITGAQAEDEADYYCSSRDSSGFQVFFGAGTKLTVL

Sequences are complete VL domains. Values are apparent Kd, the geometric mean of the replicates that gave a signal; lower means stronger binding. A pair that was not seen in any replicate is written "no signal"; this usually means weak binding, but a binder can also be missed. Empty control strains, which show no peptide, gave a signal in 28% of pairings with library AAYL52; the median was 8.2 µM and 95% of these signals were weaker than 800 nM. No background was subtracted. The control count says in how many pairings with the empty strains this scFv gave a signal.

VL,Kd (apparent),replicates with signal,empty controls
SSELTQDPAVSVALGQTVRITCENDVLRYYYANWYQQKPGQAPILVIYGKNNRPSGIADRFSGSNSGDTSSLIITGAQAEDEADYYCSSRDSSGFQVWFGAGTKLTVL,4.1 µM,2 of 3,2 of 9
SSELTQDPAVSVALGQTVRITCEGDSLRYYTYNWYQQKPGQAPILVIYGKNNRPSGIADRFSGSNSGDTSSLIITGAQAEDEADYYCSSRDSCGFQVFFGAGTKLTVL,29 µM,1 of 3,0 of 9
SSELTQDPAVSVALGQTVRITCEGDSLQYYYANWYQQKPGQAPILVIYGKNNRPSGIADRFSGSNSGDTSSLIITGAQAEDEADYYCSSRDSSGYQVCFGAGTKLTVL,110 µM,2 of 3,4 of 9
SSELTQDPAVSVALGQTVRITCEGDPARYYYANWYQQKPGQAPILVIYGKNNRPSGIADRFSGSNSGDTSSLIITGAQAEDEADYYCSSRDQSGFQVFFGAGTKLTVL,no signal,0 of 3,1 of 9
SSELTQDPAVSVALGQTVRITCEGDSLRYYYANWYQQKPGQAPILVIYGKNNRPSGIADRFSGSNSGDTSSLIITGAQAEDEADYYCSSWQSSGFQVFFGAGTKLTVL,50 nM,3 of 3,2 of 9
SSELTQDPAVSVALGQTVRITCEGDSLRYYYANWYQQKPGQAPILVIYGKNNRVSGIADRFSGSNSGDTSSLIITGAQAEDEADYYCSVRDVSGFQVFFGAGTKLTVL,640 nM,3 of 3,2 of 9
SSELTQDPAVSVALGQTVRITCEGDSNRYKYANWYQQKPGQAPILVIYGKNNRPSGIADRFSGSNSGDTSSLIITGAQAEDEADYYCSSRDSSGFQVFFGAGTKLTVL,200 nM,3 of 3,4 of 9
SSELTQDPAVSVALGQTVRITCEGDSLRYLSANWYQQKPGQAPILVIYGKNNRPSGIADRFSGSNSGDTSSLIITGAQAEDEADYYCSSRDSSGFQHFFGAGTKLTVL,80 nM,3 of 3,6 of 9
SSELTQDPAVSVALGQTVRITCEGDSLRMYYANWYQQKPGQAPILVIYGKNNRLSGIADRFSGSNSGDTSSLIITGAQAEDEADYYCSNRDSSGFQVFFGAGTKLTVL,2.8 µM,2 of 3,1 of 9
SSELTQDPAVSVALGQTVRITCEGDSLRYYYAKWYQQKPGQAPILVIYGKNNRPSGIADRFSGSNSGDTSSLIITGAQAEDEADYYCSTRDSSGFQVFFGAGTKLTVL,no signal,0 of 3,2 of 9
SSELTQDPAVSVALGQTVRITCEGFSLRWYYANWYQQKPGQAPILVIYGKNNRPSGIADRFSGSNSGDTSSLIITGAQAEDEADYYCSSRDSSIFQVFFGAGTKLTVL,8.5 µM,3 of 3,4 of 9
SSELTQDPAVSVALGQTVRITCEGFSLRYYYANWYQQKPGQAPILVIYTKNNRPSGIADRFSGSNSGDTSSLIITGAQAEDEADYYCSSRDSSHFQVFFGAGTKLTVL,920 nM,2 of 3,4 of 9

Second part, the sequence after the result:

Kd (apparent),replicates with signal,empty controls,VL
640 nM,3 of 3,1 of 9,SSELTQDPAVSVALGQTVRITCEGTSLRYYYANWYQQKPGQAPILVIYGKNNRPSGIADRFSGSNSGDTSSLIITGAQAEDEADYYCSSRDSSGAQVFFGAGTKLTVL
1.7 µM,3 of 3,4 of 9,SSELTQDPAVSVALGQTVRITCEGTDLRYYYANWYQQKPGQAPILVIYGKNNRDSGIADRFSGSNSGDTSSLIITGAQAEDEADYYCSSRDSSGFQVFFGAGTKLTVL
16 µM,2 of 3,4 of 9,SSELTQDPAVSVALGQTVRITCEGDSLRYWYANWYQQKPGQAPILVIYGKVNRPSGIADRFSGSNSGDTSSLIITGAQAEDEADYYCSSRDSSGFYVFFGAGTKLTVL
68 nM,3 of 3,3 of 9,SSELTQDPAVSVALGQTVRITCEGDSLRYYYANWYQQKPGQAPILVIYGKNNRPVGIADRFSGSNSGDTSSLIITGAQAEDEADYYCSSRDSSIFQVFFGAGTKLTVL
40 nM,3 of 3,3 of 9,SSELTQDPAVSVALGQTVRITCEGDSLRYEYANWYQQKPGQAPILVIYGKGNRPSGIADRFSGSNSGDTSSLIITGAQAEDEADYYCSSRDSSGFYVFFGAGTKLTVL
1.1 µM,3 of 3,1 of 9,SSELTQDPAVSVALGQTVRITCEGDSLCYYYANWYQQKPGQAPILVIYGKNNRPHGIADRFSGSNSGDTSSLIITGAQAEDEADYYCSVRDSSGFQVFFGAGTKLTVL
91 µM,1 of 3,1 of 9,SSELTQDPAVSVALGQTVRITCEGDSHRYYWANWYQQKPGQAPILVIYGKNNRPSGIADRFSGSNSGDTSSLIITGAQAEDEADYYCSSRDSSGFQVFFGAGTKLTVL
47 nM,3 of 3,5 of 9,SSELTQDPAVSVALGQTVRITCEGKSLRSYYANWYQQKPGQAPILVIYGKNIRPSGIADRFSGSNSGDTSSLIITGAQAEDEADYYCSSRDSSGFQVFFGAGTKLTVL
5.0 µM,3 of 3,3 of 9,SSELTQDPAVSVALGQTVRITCEIDSLRYYYANWYQQKPGQAPILVIYGKNLRPSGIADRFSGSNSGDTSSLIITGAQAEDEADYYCSSRDSSEFQVFFGAGTKLTVL
no signal,0 of 3,1 of 9,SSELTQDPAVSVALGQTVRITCEADSLRYYYANWYQQKPGQAPILVIYGKCNRPSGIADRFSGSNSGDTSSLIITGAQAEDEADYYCSSRDSSGFCVFFGAGTKLTVL
4.4 µM,1 of 3,2 of 9,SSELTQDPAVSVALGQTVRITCEGDSLRYLYANWYQQKPGQAPILVIYGKINRPVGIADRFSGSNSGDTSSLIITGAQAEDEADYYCSSRDSSGFQVFFGAGTKLTVL
17 µM,1 of 3,0 of 9,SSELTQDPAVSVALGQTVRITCEGDSKRYYYANWYQQKPGQAPILVIYGKNNRPSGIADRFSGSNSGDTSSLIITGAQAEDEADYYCSDRDSSGVQVFFGAGTKLTVL
210 nM,3 of 3,6 of 9,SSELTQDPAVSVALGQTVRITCEGDRLRIYYANWYQQKPGQAPILVIYGKNNRPIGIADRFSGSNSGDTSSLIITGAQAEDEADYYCSSRDSSGFQVFFGAGTKLTVL

A selection of 4 entries from above:

VL,Kd (apparent),replicates with signal,empty controls
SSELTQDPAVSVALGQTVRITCEGTSLRYYYANWYQQKPGQAPILVIYGKNNRPSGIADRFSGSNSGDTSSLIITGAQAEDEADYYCSSRDSSGAQVFFGAGTKLTVL,640 nM,3 of 3,1 of 9
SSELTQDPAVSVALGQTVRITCEGDSHRYYWANWYQQKPGQAPILVIYGKNNRPSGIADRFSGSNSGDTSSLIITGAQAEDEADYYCSSRDSSGFQVFFGAGTKLTVL,91 µM,1 of 3,1 of 9
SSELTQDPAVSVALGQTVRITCEIDSLRYYYANWYQQKPGQAPILVIYGKNLRPSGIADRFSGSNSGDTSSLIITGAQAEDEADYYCSSRDSSEFQVFFGAGTKLTVL,5.0 µM,3 of 3,3 of 9
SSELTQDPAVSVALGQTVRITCEGDSLRYYYAKWYQQKPGQAPILVIYGKNNRPSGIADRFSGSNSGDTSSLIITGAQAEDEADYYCSTRDSSGFQVFFGAGTKLTVL,no signal,0 of 3,2 of 9